Details: RP-HPLC, up to 48 h

With Semaglutide the “degradation in human serum” value was “almost no sign of degradation up to 48 h”.

From patent publication US20250092111A1, “POTENT AND STABLE POLYPEPTIDE ANALOGUES VIA SERINE/THREONINE LIGATION” (UNIVERSITY OF WASHINGTON, priority 2022, published 2025)
